The assay addresses PDE10 (Mus musculus, UniProt Q8CA95). As to the kind of experiment: PDE10 enzyme inhibition, IMAP TR-FRET assay. The format is biochemical. On the technique in general: TR-FRET usually uses a lanthanide donor and a delayed reading to cut background.

Protein sequences, listed by entry. Tags and fused reporters are not part of them.
UniProt Q8CA95, whole entry: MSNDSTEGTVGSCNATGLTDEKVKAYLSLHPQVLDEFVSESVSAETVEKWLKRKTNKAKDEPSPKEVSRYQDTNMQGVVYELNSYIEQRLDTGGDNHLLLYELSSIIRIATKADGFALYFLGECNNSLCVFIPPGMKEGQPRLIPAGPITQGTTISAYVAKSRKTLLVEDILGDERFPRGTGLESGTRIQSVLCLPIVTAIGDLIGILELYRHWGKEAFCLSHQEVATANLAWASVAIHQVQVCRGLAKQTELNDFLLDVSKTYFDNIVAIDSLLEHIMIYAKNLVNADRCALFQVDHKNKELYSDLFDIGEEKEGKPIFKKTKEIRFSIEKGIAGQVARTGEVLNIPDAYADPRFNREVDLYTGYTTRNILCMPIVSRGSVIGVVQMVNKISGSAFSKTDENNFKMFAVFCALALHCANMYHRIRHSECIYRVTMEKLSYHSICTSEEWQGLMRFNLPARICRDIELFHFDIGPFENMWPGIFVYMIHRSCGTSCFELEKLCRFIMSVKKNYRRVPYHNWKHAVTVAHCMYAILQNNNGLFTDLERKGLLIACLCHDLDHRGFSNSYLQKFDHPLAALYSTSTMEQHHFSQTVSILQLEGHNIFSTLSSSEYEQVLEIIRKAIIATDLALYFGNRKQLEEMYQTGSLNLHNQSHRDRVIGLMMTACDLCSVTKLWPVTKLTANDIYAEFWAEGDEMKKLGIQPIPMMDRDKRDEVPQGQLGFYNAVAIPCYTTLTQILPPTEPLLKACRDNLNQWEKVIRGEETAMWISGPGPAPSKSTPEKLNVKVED

Structures are written as SMILES. Where two headings read alike, the source gives them in different places.

Compound `CC(C)(CNC(=O)c1cccnc1Oc1ccc(C(=O)c2nc3ccccc3[nH]2)cc1)c1ccccn1` returned an IC50 of less than 25 nM.

`O=C(c1ccc(Oc2ncccc2C(=O)NCCc2ccccn2)cc1)c1nc2ccccc2[nH]1` displayed an IC50 (IC50 class against PDE10, Table IVA) of less than 25 nM.

The term IC50 denotes the concentration that gives 50% inhibition. A low value points to greater potency in that assay.
